Results from ChEMBL document CHEMBL2331117 (J Med Chem, 2013).
Blank lines part the entries; values can stand above or below the molecule they belong to.

Chains of the proteins cited; added tags and fusions are not shown. Lines headed by an entry give the natural chain unless they say otherwise; changes in a name come on top.
UniProt Q8N4C8: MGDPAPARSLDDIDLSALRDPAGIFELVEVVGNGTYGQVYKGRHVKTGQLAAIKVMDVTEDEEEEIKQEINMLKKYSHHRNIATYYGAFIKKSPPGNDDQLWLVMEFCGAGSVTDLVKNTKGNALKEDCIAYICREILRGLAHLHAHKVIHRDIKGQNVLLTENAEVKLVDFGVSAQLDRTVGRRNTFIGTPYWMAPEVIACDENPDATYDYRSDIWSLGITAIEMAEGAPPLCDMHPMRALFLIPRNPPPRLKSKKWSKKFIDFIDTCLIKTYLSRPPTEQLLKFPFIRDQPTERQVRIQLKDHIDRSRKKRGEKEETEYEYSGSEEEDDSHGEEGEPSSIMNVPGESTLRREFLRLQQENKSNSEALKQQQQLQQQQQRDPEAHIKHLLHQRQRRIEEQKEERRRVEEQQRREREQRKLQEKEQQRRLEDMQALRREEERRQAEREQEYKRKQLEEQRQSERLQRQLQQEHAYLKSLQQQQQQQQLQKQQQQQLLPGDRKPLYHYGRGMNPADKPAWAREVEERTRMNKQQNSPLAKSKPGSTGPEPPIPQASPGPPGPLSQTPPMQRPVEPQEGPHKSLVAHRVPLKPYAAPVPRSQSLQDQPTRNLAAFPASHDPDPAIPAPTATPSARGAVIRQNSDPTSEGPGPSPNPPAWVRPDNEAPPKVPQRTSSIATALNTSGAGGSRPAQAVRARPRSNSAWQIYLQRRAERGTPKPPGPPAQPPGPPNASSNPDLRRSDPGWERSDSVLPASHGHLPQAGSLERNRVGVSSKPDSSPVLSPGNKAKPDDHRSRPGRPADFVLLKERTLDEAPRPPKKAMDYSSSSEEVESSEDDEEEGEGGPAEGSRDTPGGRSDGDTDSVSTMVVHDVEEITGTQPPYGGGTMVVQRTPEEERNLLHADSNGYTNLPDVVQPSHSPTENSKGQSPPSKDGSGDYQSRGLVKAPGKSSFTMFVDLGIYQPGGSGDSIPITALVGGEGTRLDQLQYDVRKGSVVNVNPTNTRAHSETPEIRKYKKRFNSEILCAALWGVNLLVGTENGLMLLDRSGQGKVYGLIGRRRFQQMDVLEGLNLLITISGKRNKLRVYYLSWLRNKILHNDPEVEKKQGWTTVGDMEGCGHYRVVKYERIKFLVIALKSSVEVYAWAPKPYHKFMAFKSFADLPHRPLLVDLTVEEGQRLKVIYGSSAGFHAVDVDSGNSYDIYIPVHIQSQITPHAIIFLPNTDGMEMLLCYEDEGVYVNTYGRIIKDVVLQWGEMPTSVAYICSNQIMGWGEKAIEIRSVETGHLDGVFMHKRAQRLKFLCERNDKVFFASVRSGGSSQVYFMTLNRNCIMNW
UniProt P53667: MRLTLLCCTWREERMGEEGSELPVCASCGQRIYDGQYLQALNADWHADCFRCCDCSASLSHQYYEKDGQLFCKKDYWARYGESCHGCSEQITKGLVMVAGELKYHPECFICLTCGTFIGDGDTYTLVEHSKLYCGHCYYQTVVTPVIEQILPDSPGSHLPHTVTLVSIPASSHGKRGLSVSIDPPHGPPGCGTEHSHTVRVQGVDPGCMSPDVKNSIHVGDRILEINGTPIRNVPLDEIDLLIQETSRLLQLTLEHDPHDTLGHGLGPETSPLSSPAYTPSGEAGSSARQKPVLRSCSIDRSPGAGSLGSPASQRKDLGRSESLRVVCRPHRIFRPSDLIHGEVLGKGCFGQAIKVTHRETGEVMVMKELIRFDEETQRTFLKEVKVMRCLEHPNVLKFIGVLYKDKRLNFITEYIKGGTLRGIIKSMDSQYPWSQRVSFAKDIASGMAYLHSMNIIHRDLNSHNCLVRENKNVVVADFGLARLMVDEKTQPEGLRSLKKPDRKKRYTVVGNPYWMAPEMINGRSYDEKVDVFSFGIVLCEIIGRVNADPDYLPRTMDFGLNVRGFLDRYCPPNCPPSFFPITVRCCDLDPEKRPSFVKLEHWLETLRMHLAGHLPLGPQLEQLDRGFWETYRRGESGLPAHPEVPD
UniProt O14920: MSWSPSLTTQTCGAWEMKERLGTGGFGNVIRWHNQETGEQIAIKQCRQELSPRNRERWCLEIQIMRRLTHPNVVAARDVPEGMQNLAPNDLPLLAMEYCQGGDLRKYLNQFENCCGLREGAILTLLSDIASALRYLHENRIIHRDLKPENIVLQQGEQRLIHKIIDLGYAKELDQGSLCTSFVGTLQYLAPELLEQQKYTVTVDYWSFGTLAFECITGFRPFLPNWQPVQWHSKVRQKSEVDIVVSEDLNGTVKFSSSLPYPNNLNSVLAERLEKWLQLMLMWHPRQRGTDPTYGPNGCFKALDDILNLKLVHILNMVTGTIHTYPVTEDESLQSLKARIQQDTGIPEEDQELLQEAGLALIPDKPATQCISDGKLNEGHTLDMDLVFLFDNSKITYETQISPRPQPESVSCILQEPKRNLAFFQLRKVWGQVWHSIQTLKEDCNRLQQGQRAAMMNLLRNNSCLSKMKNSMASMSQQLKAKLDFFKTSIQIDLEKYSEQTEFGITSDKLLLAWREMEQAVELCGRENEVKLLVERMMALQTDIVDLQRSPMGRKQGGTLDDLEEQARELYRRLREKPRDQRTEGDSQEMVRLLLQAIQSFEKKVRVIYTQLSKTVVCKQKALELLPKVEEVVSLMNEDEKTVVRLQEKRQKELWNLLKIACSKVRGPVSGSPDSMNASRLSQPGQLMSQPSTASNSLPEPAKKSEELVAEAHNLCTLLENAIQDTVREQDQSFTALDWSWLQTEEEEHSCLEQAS
UniProt Q9Y3S1: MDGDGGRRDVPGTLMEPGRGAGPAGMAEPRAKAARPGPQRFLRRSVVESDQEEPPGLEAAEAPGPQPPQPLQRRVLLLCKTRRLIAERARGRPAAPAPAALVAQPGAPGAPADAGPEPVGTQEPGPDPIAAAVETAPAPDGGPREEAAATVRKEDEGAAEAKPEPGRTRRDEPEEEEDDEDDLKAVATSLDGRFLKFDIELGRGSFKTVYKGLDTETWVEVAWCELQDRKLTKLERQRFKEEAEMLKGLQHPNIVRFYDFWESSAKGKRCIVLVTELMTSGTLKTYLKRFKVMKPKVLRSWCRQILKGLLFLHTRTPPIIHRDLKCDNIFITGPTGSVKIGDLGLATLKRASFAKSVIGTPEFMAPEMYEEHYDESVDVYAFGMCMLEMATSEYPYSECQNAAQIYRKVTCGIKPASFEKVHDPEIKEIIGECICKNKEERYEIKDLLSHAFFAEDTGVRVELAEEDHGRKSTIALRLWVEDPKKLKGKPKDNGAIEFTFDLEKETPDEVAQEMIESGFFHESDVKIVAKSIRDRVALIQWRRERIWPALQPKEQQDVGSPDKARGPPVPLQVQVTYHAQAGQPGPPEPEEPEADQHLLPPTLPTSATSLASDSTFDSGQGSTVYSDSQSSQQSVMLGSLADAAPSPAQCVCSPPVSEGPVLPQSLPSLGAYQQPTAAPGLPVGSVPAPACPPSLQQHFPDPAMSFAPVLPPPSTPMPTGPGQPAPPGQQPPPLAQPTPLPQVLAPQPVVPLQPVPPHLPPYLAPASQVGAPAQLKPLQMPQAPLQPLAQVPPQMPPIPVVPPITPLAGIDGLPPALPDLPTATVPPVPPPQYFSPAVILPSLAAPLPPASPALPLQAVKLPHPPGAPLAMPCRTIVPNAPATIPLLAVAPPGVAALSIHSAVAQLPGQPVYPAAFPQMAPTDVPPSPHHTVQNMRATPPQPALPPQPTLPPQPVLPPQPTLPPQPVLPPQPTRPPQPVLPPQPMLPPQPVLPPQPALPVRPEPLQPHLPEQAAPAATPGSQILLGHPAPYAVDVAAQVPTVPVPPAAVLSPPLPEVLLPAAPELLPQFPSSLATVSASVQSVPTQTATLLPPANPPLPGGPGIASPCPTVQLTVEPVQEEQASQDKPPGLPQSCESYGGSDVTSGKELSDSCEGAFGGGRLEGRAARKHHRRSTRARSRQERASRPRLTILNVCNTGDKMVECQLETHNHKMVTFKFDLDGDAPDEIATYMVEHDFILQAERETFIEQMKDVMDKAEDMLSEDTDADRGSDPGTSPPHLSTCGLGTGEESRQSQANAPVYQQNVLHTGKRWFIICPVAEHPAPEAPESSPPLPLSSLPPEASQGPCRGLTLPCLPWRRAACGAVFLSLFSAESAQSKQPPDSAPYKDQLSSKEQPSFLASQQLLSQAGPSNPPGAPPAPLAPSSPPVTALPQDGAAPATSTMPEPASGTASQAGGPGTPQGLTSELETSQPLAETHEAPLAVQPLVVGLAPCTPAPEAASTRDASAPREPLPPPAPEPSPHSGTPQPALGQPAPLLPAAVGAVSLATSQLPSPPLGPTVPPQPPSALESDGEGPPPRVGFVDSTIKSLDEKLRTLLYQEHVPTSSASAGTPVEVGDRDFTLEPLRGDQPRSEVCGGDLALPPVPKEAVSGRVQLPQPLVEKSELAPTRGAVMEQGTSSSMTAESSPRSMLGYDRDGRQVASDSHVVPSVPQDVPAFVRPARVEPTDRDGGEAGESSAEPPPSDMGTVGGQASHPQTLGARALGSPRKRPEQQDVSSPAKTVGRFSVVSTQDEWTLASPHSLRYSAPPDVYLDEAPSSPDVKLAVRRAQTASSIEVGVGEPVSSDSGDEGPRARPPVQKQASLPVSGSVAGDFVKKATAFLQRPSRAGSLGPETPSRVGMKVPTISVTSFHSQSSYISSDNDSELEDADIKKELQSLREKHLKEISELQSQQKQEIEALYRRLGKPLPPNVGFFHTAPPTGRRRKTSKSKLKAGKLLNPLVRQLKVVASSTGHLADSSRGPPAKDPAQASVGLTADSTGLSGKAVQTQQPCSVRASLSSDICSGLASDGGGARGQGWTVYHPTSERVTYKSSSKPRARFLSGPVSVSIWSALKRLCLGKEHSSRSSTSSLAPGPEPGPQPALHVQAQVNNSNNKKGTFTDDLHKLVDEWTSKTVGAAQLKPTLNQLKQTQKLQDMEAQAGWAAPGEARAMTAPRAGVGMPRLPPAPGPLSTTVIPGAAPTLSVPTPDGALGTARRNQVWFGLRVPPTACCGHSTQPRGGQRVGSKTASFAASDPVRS
UniProt Q86Y07: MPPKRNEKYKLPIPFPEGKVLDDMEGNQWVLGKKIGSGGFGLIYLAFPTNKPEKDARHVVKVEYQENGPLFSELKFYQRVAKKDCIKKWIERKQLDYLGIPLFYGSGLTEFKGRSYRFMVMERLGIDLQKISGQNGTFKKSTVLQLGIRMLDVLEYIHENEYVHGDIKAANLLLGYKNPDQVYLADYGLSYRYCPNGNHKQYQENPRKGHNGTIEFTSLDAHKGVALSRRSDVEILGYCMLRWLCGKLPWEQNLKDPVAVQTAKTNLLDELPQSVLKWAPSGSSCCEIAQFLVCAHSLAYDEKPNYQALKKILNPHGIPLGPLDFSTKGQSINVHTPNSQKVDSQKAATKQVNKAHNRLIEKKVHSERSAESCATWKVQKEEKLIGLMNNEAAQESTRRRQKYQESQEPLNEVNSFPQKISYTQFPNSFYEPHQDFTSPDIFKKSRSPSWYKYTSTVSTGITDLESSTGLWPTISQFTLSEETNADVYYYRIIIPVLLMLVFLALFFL
UniProt Q14289, whole entry: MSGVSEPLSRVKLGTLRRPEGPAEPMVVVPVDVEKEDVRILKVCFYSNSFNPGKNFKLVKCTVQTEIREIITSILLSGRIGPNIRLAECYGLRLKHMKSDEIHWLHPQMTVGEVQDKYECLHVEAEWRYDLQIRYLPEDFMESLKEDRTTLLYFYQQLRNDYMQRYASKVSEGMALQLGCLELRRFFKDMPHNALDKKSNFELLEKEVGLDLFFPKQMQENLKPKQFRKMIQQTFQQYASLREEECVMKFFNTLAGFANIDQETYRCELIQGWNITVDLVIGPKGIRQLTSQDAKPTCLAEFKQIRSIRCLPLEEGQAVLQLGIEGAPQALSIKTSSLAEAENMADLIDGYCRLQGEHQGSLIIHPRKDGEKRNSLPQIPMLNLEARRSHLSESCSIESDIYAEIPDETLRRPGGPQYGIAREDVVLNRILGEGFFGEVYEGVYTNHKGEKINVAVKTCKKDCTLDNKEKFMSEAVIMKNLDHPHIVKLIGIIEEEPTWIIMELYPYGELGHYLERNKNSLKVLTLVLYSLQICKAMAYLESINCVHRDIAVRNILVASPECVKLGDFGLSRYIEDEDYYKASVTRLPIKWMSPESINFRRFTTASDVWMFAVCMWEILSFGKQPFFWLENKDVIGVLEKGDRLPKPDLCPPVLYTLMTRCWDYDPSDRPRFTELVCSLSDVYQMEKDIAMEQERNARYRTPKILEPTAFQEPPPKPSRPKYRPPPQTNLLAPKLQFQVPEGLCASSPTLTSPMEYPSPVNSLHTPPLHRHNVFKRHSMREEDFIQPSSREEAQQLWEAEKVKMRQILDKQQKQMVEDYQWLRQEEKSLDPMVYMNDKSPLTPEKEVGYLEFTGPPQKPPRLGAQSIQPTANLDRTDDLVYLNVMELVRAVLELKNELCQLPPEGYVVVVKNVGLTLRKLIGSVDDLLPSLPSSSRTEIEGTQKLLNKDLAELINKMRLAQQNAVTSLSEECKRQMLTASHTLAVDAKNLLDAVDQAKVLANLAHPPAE

Assays:
Homo sapiens = species: Homo sapiens; experiment: Selectivity ratio of IC50 for PI3Kalpha (unknown origin) to IC50 for mTOR (unknown origin)
[1] = Inhibition of IRK (unknown origin); design: species or system Homo sapiens
[2] = target: T1, Serine/threonine-protein kinase D2 (Homo sapiens, UniProt Q9BZL6); experiment: Inhibition of PKD2 (unknown origin)
T1 sequence (Q9BZL6 whole entry): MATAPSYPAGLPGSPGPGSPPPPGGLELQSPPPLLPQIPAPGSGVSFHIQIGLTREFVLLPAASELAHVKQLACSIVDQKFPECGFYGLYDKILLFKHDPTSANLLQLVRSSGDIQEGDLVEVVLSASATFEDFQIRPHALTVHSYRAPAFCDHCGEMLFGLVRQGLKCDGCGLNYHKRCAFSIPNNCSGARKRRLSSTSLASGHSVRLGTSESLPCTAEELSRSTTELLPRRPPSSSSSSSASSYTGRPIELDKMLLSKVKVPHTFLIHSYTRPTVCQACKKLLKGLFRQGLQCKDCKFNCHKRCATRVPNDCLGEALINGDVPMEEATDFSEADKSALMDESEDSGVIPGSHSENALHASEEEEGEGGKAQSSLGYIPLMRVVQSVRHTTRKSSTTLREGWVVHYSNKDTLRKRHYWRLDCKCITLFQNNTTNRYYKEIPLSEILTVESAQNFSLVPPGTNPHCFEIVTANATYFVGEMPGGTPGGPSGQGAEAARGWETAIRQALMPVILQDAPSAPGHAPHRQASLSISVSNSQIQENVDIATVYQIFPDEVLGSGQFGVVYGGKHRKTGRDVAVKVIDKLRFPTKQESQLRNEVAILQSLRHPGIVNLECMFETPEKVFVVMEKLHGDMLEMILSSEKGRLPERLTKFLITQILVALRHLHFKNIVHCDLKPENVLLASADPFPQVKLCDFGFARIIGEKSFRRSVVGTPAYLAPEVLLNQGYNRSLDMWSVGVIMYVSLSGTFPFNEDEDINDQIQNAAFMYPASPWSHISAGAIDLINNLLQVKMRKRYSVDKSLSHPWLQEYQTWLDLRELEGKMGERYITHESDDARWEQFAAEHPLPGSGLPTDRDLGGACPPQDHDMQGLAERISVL

[3] = target: Protein kinase C eta type (Homo sapiens, UniProt P24723); experiment: Inhibition of PKCeta (unknown origin)
[4] = target: T2, Protein kinase C beta type (Homo sapiens, UniProt P05771); experiment: Inhibition of PKCbeta2 (unknown origin)
[5] = target: T2, Protein kinase C beta type; experiment: Inhibition of PKCbeta1 (unknown origin)
[6] = Inhibition of PKA (unknown origin); design: species or system Homo sapiens
Misshapen-like kinase 1 = Misshapen-like kinase 1 (Homo sapiens, UniProt Q8N4C8); experiment: Inhibition of MINK (unknown origin)
[7] = target: T3, Serine/threonine-protein kinase STK11 (Homo sapiens, UniProt Q15831); experiment: Inhibition of LKB1 (unknown origin)
T3 sequence (Q15831 whole entry): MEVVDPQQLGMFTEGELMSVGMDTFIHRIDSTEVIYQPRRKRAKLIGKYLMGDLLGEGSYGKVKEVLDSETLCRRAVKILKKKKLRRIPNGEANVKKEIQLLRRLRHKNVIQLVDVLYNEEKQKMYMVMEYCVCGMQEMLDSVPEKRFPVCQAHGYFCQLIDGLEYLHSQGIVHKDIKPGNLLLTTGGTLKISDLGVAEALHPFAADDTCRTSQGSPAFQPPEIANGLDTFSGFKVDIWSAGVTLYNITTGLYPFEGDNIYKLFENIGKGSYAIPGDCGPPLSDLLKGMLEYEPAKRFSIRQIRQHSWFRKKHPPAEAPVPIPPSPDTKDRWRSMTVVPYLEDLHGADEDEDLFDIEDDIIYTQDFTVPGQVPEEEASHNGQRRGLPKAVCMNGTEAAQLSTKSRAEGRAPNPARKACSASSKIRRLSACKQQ

LIM domain kinase 1 = LIM domain kinase 1 (Homo sapiens, UniProt P53667); experiment: Inhibition of LIMK1 (unknown origin)
[8] = target: Inhibitor of nuclear factor kappa-B kinase subunit beta (Homo sapiens, UniProt O14920); experiment: Inhibition of IKKbeta (unknown origin)
Ephrin type-B receptor 1 = target: T4, Ephrin type-B receptor 1 (Homo sapiens, UniProt P54762); experiment: Inhibition of EPHB1 (unknown origin)
T4 sequence (P54762 whole entry): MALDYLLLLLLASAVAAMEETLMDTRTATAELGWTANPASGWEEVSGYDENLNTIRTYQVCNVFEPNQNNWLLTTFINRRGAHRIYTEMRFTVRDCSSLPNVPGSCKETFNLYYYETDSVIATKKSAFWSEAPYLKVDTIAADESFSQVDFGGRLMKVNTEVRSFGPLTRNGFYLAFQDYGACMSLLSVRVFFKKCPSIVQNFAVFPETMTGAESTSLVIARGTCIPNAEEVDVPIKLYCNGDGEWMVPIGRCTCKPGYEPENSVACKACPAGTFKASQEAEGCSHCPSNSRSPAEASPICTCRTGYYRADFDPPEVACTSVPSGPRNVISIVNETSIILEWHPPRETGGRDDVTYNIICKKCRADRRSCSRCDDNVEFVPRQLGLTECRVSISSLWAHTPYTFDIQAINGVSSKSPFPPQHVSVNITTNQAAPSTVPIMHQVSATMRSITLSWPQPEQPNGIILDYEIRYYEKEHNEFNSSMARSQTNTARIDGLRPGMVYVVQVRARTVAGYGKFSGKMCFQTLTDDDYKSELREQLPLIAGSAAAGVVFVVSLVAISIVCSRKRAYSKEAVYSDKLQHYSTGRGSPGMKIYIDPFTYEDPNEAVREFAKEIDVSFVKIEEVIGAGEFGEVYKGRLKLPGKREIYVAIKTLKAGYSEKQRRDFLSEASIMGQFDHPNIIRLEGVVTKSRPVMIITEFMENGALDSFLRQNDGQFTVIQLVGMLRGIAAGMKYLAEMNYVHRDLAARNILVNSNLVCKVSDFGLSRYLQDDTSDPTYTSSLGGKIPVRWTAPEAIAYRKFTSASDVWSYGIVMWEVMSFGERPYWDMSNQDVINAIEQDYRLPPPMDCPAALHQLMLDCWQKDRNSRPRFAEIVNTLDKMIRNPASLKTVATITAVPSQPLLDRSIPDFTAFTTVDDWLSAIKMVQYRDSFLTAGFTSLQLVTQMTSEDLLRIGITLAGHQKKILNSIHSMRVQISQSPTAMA

[9] = target: T5, Dual specificity tyrosine-phosphorylation-regulated kinase 2 (Homo sapiens, UniProt Q92630); experiment: Inhibition of DYRK2 (unknown origin)
T5 sequence (Q92630 whole entry): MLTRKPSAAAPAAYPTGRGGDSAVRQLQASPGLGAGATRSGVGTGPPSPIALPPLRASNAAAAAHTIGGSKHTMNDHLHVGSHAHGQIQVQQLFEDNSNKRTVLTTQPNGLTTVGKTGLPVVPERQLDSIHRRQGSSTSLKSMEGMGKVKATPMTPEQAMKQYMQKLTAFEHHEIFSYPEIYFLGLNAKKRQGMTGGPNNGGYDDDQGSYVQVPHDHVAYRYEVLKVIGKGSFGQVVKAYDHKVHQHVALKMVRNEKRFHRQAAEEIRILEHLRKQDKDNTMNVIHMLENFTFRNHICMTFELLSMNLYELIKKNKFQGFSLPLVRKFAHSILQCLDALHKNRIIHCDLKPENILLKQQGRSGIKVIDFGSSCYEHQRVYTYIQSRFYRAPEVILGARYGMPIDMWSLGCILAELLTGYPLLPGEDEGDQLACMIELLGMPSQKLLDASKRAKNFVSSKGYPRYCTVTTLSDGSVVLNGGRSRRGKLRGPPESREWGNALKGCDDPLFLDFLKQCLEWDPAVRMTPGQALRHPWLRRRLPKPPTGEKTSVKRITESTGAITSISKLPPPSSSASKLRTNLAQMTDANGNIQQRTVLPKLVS

[10] = target: Calcium/calmodulin-dependent protein kinase type 1 (Homo sapiens, UniProt Q14012); experiment: Inhibition of CAMK1 (unknown origin)
[11] = target: T6, Tyrosine-protein kinase receptor UFO (Homo sapiens, UniProt P30530); experiment: Inhibition of AXL (unknown origin)
T6 sequence (P30530 whole entry): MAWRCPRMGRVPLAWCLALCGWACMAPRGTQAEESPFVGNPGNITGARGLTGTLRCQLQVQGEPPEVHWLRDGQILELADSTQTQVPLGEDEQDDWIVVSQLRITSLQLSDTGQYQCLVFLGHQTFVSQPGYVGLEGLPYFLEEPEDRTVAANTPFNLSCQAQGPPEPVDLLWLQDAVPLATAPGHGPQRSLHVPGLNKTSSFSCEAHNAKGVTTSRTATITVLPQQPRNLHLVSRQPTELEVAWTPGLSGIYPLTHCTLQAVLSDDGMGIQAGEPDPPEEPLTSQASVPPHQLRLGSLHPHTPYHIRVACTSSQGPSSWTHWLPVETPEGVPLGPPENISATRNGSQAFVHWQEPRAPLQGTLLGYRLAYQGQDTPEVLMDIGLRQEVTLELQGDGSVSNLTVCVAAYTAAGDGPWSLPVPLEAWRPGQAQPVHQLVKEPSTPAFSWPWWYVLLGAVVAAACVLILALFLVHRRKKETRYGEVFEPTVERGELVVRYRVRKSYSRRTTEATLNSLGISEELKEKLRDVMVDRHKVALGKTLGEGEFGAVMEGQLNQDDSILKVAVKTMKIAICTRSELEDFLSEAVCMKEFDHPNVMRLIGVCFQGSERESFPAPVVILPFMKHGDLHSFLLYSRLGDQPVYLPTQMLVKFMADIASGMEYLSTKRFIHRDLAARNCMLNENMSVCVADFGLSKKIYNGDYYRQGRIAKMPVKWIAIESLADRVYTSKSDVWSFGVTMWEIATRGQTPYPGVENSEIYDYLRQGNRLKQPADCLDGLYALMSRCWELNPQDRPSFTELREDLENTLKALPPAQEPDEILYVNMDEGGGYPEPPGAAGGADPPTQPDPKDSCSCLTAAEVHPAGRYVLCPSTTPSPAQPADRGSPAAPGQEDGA

[12] = target: T7, Mitogen-activated protein kinase kinase kinase 5 (Homo sapiens, UniProt Q99683); experiment: Inhibition of ASK1 (unknown origin)
T7 sequence (Q99683 whole entry): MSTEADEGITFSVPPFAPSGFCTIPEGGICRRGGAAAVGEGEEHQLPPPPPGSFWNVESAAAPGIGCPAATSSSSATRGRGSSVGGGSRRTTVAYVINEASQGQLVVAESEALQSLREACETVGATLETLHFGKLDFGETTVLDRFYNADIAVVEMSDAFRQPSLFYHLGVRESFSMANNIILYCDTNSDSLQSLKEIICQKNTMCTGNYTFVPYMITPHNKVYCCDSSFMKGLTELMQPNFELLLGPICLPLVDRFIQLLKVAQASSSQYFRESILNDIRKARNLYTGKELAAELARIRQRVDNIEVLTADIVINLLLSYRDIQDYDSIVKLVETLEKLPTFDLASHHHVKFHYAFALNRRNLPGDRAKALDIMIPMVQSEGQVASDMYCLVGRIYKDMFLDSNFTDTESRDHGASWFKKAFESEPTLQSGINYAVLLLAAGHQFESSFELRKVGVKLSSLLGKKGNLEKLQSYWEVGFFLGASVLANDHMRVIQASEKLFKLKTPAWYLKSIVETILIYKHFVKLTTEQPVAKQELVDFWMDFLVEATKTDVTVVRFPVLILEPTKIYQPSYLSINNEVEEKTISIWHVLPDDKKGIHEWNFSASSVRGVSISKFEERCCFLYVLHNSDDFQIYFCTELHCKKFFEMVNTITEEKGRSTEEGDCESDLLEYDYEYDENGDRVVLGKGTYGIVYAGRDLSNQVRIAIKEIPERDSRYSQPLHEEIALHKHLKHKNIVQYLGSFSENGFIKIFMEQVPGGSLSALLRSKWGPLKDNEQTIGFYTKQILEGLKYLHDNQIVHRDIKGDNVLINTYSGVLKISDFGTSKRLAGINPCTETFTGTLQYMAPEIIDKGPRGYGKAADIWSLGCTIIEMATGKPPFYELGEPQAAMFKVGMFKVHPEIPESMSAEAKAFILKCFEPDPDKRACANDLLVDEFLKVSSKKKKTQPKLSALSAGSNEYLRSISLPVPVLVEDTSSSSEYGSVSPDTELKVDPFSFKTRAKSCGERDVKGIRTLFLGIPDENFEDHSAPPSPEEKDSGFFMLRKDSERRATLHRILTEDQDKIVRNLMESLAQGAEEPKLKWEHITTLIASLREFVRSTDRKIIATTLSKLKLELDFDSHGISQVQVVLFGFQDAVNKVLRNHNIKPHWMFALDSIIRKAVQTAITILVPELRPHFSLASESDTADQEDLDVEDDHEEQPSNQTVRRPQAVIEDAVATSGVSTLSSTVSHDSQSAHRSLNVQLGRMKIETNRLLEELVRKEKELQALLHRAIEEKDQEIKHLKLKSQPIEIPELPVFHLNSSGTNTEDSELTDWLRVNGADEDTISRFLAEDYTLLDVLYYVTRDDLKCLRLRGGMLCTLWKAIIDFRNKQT

[13] = target: Fibroblast growth factor receptor 4 (Homo sapiens, UniProt P22455); experiment: Inhibition of FGFR4 (unknown origin)
[14] = target: Fibroblast growth factor receptor 2 (Homo sapiens, UniProt P21802); experiment: Inhibition of FGFR2 (unknown origin)
[15] = Inhibition of EPH4 (unknown origin); design: species or system Homo sapiens
[16] = target: Serine/threonine-protein kinase WNK2 (Homo sapiens, UniProt Q9Y3S1); experiment: Inhibition of WNK2 (unknown origin)
[17] = target: Serine/threonine-protein kinase VRK2 (Homo sapiens, UniProt Q86Y07); experiment: Inhibition of VRK2 (unknown origin)
[18] = target: Rho-associated protein kinase 1 (Homo sapiens, UniProt Q13464); experiment: Inhibition of ROCK1 (unknown origin)
[19] = target: Protein-tyrosine kinase 2-beta (Homo sapiens, UniProt Q14289); experiment: Inhibition of PYK2 (unknown origin)

Ratio IC50 (Homo sapiens): > 1000
SMILES: Cc1c(C(=O)N2CCOc3ccc(-c4ccc5nc[nH]c5c4)cc3C2)ccc(S(C)(=O)=O)c1F

IC50 [1]: > 3.5 µM
IC50 [2]: > 10 µM
IC50 [3]: > 10 µM
IC50 [4]: > 10 µM
IC50 [5]: > 10 µM
IC50 [6]: > 10 µM
IC50 (Misshapen-like kinase 1): > 10 µM
IC50 [7]: > 10 µM
IC50 (LIM domain kinase 1): > 10 µM
IC50 [8]: > 10 µM
IC50 (Ephrin type-B receptor 1): > 10 µM
IC50 [9]: > 10 µM
IC50 [10]: > 10 µM
IC50 [11]: > 10 µM
IC50 [12]: > 10 µM
IC50 [13]: > 10 µM
IC50 [14]: > 10 µM
IC50 [15]: > 10 µM
IC50 [16]: > 10 µM
IC50 [17]: > 10 µM
IC50 [18]: > 10 µM
IC50 [19]: > 10 µM
SMILES: Cc1c(C(=O)N2CCOc3ccc(-c4ccc(N)nc4)cc3C2)ccc(S(C)(=O)=O)c1F
